Chains of the proteins cited; added tags and fusions are not shown.
UniProt P21397, whole entry, species assumed: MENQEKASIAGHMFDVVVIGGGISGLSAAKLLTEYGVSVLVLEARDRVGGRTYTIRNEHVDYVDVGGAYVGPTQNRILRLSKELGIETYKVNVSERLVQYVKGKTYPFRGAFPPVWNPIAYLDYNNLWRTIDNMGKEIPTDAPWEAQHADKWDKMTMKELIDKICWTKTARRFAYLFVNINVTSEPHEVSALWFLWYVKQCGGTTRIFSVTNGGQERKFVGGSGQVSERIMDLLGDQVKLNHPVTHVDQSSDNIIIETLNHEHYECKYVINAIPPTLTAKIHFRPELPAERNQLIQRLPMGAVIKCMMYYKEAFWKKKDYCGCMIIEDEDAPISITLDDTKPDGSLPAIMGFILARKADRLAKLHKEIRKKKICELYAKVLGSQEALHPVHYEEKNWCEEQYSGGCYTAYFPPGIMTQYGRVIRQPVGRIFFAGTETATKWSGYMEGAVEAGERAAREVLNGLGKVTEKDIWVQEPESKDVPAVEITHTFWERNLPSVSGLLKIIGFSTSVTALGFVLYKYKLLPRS
UniProt P27338, whole entry, species assumed: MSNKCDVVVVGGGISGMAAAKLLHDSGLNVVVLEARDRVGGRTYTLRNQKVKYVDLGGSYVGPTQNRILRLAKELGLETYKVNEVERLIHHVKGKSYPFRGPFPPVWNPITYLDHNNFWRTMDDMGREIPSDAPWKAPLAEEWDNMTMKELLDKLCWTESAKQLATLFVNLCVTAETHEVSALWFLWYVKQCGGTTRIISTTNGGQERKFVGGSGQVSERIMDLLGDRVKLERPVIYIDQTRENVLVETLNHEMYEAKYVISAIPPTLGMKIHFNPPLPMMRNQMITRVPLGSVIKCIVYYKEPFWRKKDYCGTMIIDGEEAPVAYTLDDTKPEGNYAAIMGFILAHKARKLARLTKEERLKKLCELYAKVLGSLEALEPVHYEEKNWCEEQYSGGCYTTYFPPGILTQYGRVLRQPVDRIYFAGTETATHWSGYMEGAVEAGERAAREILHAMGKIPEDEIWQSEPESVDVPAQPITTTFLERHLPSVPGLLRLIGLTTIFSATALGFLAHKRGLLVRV

According to patent US20260014180A1 (published 2026):

Experiments:
MAO-A [1] = biological target: T1, MAO-A (Homo sapiens, UniProt P21397); experiment: Sigma-Aldrich commercial kit MAO-A inhibition assay (peroxide/fluorescence); assay type: biochemical; details: first round; inhibitor control at 5 uM
MAO-B = MAO-B (Homo sapiens, UniProt P27338); details: in vivo; cited from earlier work
MAO-A [2] = biological target: T1, MAO-A; details: in vivo; cited from earlier work

Q: For `C#CCN(C)CCCOc1ccc(Cl)cc1Cl` [Clorgyline], which MAO-A inhibition (MAO-A [1]) is on record?
A: The MAO-A inhibition was 94.16%.

Q: With `NNCCc1ccccc1` [Phenelzine] as the molecule, how does the “duration of MAO-B inhibition” value (MAO-B) read?
A: Its value is “up to three weeks”.

Q: And the “duration of MAO-A inhibition” value (MAO-A [2])?
A: The value was “up to three weeks”.
